The text below walks through data of publication PMC3978654, “Surface plasmon resonance using the catalytic domain of soluble guanylate cyclase allows the detection of enzyme activators^” (Bioorganic & Medicinal Chemistry Letters, 2014).

Structures are written as SMILES. pKd: −log10 of the molar value.

This test deals with T1, soluble guanylate cyclase α1β1 (sGC) (Homo sapiens, UniProt Q02108+Q02153).
T1 construct: gene GUCY1B1; α1β1 catalytic domain (sGCcat); with sGC α1 subunit (GUCY1A1)
T1 sequence (Q02153 408-619 limits assumed): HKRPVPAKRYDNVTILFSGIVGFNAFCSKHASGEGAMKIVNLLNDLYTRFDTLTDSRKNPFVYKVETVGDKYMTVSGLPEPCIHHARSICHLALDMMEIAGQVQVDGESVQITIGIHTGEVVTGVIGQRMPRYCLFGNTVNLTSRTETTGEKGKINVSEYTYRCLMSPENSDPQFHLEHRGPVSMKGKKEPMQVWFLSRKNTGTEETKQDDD
T1 sequence (Q02108 467-690): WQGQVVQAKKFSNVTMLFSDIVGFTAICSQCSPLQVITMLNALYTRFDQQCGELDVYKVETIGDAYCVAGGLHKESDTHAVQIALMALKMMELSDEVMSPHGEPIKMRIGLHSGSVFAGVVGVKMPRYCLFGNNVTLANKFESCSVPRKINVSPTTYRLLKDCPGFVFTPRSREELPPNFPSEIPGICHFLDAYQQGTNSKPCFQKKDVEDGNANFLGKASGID
The experiment in a line: SPR (Biacore T200), concentration series. The test is classed as binding.

`Nc1ncnc2c1ncn2[C@@H]1O[C@H](COP(=O)(O)OP(=O)(O)OP(=O)(O)O)[C@@H](O)[C@H]1O` [ATP] had a negative logarithm of the Kd (pKd) of 3.07.
